Laboratory results reported in patent publication US20120045393A1 (priority 2009, published 2012).

Tests used:
[1] = tested on: LHRH binding sites on human ovarian cancer cells (EFO-27);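 note: Cell-associated radioactivity on confluent EFO-27 monolayers in 96-well plates, measured by microplate scintillation counting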
[2] = tested on: EFO-27 human ovarian cancer cells (LHRH binding sites); experiment: Direct binding/uptake of 177Lu-labeled LHRH-II analogs to EFO-27 cells; settings: 177Lu-labeled analog, single concentration
Description: All reagents and chemicals were obtained from Sigma unless otherwise specified. LHRH analogs and ^177Lu-LHRH-II analogs were prepared by in-house chemists, as described elsewhere in the application. ^177Lu-LHRH-II analogs were not HPLC purified, as they had been prepared using formulation conditions that yielded high RCP without the need for purification. […] The HPLC-purified material was taken in a stabilizing buffer containing 5% lactose, 0.1% L-cysteine hydrochloride and 800 KIU/mL aprotinin and received as a lyophilized product and stored at −70° C. This was reconstituted in distilled water, aliquoted and stored at −70° C. The radioactivity was determined using Microplate Scintillation counter (Wallac Microbeta Trilux).
For the binding assay, EFO-27 cells were seeded onto 96-well clear flat-bottom tissue-culture-treated plates at 15,000/well density in the growth medium and used for assay on day 2 post-seeding. […]
Direct Binding: Direct binding studies were carried out by incubating appropriate ^177Lu-labeled compounds with EFO-27 cells at 4° C. for 1 h followed by washing off the unbound radioactivity. Non-specific binding was determined by incubating the ^177Lu-LHRH-II analogs in the presence of a large excess (30 uM) of cold (unlabeled) LHRH-II analogs. […]

EFO-27 cells = experiment: Internalization/efflux studies in EFO-27 cells; type: cell-based, human
Description: Internalization/Efflux Studies: The internalization and efflux studies were carried out following the general procedure. Basically, ^177Lu-LHRH II or ^125I-LHRH II ([^125I-Tyr^8]BRU-2477) (75 uL, 3.0 μCi/mL) was added to the EFO-27 or PC-3 cells. The cells were incubated for 40 min at 37° C. The unbound radioactivity was washed off (4×). Following addition of fresh medium, the cells were further incubated for up to 2 h. At various time points (15, 30, 60 & 120 min) the distribution of radioactivity (membrane-bound, internalized, and efflux) was determined
The internalization and efflux of several Lu-177 labeled LHRH II analogs in EFO-27 cells have been investigated. Basically, following pre-incubation of cells with ^177Lu-LHRH II samples, the binding buffer containing the ^177Lu was replaced with fresh media without complex. The extent of initial internalization (T=0), the amount of radioactive material that remained internalized and the efflux at 0-120 min were determined. The results are shown in FIGS. 21a-f and 22a-c and in Table 25.

SMILES: CN(CC(=O)N[C@@H](Cc1c[nH]cn1)C(=O)N[C@@H](Cc1c[nH]c2ccccc12)C(=O)N[C@@H](CO)C(=O)N[C@@H](Cc1c[nH]cn1)C(=O)N[C@H](CCCNC(=N)N)C(=O)N[C@@H](Cc1c[nH]c2ccccc12)C(=O)N[C@@H](Cc1ccc(C(=O)c2ccccc2)cc1)C(=O)N1CCC[C@H]1C(=O)NNC(N)=O)C(=O)c1ccc(NC(=O)CNC(=O)CN2CCN(CC(=O)O)CCN(CC(=O)O)CCN(CC(=O)O)CC2)cc1 [compound 2696]
EC50 [1]: 440 nM
177Lu-LHRH II Direct binding % Bound [2]: 0.94%

EC50 [1]: 260 nM
SMILES: N=C(N)NCCC[C@@H](NC(=O)[C@H](Cc1c[nH]cn1)NC(=O)[C@H](CO)NC(=O)[C@H](Cc1c[nH]c2ccccc12)NC(=O)[C@H](Cc1c[nH]cn1)NC(=O)[C@@H](Cc1ccc(CN)cc1)NC(=O)CN1CCN(CC(=O)O)CCN(CC(=O)O)CCN(CC(=O)O)CC1)C(=O)N[C@@H](Cc1c[nH]c2ccccc12)C(=O)N[C@@H](Cc1ccc(C(=O)c2ccccc2)cc1)C(=O)N1CCC[C@H]1C(=O)NNC(N)=O [BRU-2757]
Cell associated activity at 0 h % Efflux (EFO-27 cells; 0 h): 12.4%
Cell associated activity at 0 h % Intern (EFO-27 cells; 0 h, internalized): 34.5%
Cell associated activity at 0 h % Memb (EFO-27 cells; 0 h, membrane bound): 54.3%
Cell associated activity at 2 h % Efflux (EFO-27 cells; 2 h): 79.5%
Cell associated activity at 2 h % Intern (EFO-27 cells; 2 h, internalized): 11.7%
Cell associated activity at 2 h % Memb (EFO-27 cells; 2 h, membrane bound): 8.8%
Bound % (EFO-27 cells; of added): 9.50%
Bound (EFO-27 cells; per well): 19.0 fmol

SMILES: N=C(N)NCCC[C@H](NC(=O)CN1CCN(CC(=O)O)CCN(CC(=O)O)CCN(CC(=O)O)CC1)C(=O)N[C@@H](CCCNC(=N)N)C(=O)N[C@@H](Cc1c[nH]c2ccccc12)C(=O)N[C@@H](CO)C(=O)N[C@@H](Cc1c[nH]cn1)C(=O)N[C@H](CCCNC(=N)N)C(=O)N[C@@H](Cc1c[nH]c2ccccc12)C(=O)N[C@@H](Cc1ccc(C(=O)c2ccccc2)cc1)C(=O)N1CCC[C@H]1C(=O)NNC(N)=O [BRU-3050]
EC50 ([1]; Table 5: modifications of amino acids at positions 1 and 2, in vitro binding on EFO-27 cells): 310 nM

SMILES: N=C(N)NCCC[C@@H](NC(=O)[C@H](Cc1c[nH]cn1)NC(=O)[C@H](CO)NC(=O)[C@H](Cc1c[nH]c2ccccc12)NC(=O)[C@H](Cc1c[nH]cn1)NC(=O)[C@@H](Cc1cccc2ccccc12)NC(=O)CN1CCN(CC(=O)O)CCN(CC(=O)O)CCN(CC(=O)O)CC1)C(=O)N[C@@H](Cc1c[nH]c2ccccc12)C(=O)N[C@@H](Cc1ccc(C(=O)c2ccccc2)cc1)C(=O)N1CCC[C@H]1C(=O)NNC(N)=O [compound 2869]
177Lu-LHRH II Direct binding % Bound [2]: 9.20%

EC50 [1]: 250 nM
SMILES: N=C(N)NCCC[C@H](NC(=O)[C@@H](Cc1ccc2ccccc2c1)NC(=O)CN1CCN(CC(=O)O)CCN(CC(=O)O)CCN(CC(=O)O)CC1)C(=O)N[C@@H](Cc1cccc2ccccc12)C(=O)N[C@@H](CO)C(=O)N[C@@H](Cc1c[nH]cn1)C(=O)N[C@H](CCCNC(=N)N)C(=O)N[C@@H](Cc1c[nH]c2ccccc12)C(=O)N[C@@H](Cc1ccc(C(=O)c2ccccc2)cc1)C(=O)N1CCC[C@H]1C(=O)NNC(N)=O [compound 3104]

EC50 [1]: 290 nM
SMILES: N=C(N)NCCC[C@@H](NC(=O)[C@H](Cc1c[nH]cn1)NC(=O)[C@H](CO)NC(=O)[C@H](Cc1c[nH]c2ccccc12)NC(=O)[C@@H](Cc1ccc(CN)cc1)NC(=O)[C@@H](Cc1ccc(CN)cc1)NC(=O)CN1CCN(CC(=O)O)CCN(CC(=O)O)CCN(CC(=O)O)CC1)C(=O)N[C@@H](Cc1c[nH]c2ccccc12)C(=O)N[C@@H](Cc1ccc(C(=O)c2ccccc2)cc1)C(=O)N1CCC[C@H]1C(=O)NNC(N)=O [BRU-3095]

Read-outs that look alike come from different tables or passages of the source. One block for each compound: values may come before it.
